Experimental data from US20140288069A1, “AMINO-SUBSTITUTED IMIDAZOPYRIDAZINES AS MKNK1 KINASE INHIBITORS” (Bayer Intellectual Property GmbH, priority 2011, published 2014).

By UniProt entry, the sequences of proteins in these tests, tags left out. Residues count along the entry.
UniProt Q9BUB5, 1-424 isoform Q9BUB5-2 T344D: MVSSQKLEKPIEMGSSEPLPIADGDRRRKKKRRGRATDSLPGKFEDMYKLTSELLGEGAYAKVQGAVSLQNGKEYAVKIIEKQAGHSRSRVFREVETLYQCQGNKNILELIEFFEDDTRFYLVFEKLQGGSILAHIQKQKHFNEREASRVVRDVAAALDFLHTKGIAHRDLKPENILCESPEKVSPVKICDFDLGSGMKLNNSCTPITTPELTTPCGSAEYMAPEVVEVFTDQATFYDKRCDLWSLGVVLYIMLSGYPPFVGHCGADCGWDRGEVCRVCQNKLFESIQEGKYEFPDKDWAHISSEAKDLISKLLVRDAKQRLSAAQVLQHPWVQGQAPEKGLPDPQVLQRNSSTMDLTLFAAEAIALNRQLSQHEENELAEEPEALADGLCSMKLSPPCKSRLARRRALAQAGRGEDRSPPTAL

Experiments:
human full-lengt MKNK1 = molecular target: T1, human full-lengt MKNK1 (Homo sapiens, UniProt Q9BUB5, T385D); assay: MKNK1 kinase assay (MKNK1 TR-FRET assay); format: biochemical; conditions: final ATP 10 μM, 15 min pre-incubation, GST-MKNK1 (T344D)
T1 construct: GST (N); purchased Carna Biosciences 02-145; host or cells: insect cells (baculovirus)
Procedure: MKNK1-inhibitory activity of compounds of the present invention was quantified employing the MKNK1 TR-FRET assay as described in the following paragraphs.
As substrate for the kinase reaction the biotinylated peptide biotin-Ahx-[…] (C-terminus in amide form) was used which can be purchased e.g. form the company Biosyntan (Berlin-Buch, Germany).
For the assay 50 mL of a 100 fold concentrated solution of the test compound in DMSO was pipetted into a black low volume 384 well microtiter plate (Greiner Bio-One, Frickenhausen, Germany), 2 μL of a solution of MKNK1 in aqueous assay buffer [50 mM HEPES pH 7.5, 5 mM magnesium chloride, 1.0 mM dithiothreitol, 0.005% (v/v) Nonidet-P40 (Sigma)] was added and the mixture was incubated for 15 min at 22° C. to allow pre-binding of the test compounds to the enzyme before the start of the kinase reaction. […] The concentration of MKNK1 was adjusted depending of the activity of the enzyme lot and was chosen appropriate to have the assay in the linear range, typical concentrations were in the range of 0.05 μg/ml.
The resulting mixture was incubated for 1 h at 22° C. to allow the formation of complex between the phosphorylated biotinylated peptide and the detection reagents. Subsequently the amount of phosphorylated substrate was evaluated by measurement of the resonance energy transfer from the Eu-chelate to the streptavidine-XL.

human full-length MKNK1 = molecular target: T2, human full-length MKNK1 (Homo sapiens, UniProt Q9BUB5, T385D); assay: MKNK1 kinase high ATP assay (TR-FRET-based); format: biochemical; conditions: final ATP 2 mM, 15 min pre-incubation with MKNK1, GST-MKNK1 (T344D);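 note: biotinylated peptide phosphorylation read out via Eu-chelate to streptavidin-XL665 energy transfer using anti-phospho-S6 (Ser236) antibody, 30 min reaction at 22 °C with 0.06 µM substrate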
T2 construct: GST (N); purchased Carna Biosciences 02-145; host or cells: insect cells (baculovirus)
Procedure: MKNK1-inhibitory activity at high ATP of compounds of the present invention after their preincubation with MKNK1 was quantified employing the TR-FRET-based MKNK1 high ATP assay as described in the following paragraphs.
A recombinant fusion protein of Glutathione-S-Transferase (GST, N-terminally) and human full-length MKNK1 (amino acids 1-424 and T344D of accession number BAA 19885.1), expressed in insect cells using baculovirus expression system and purified via glutathione sepharose affinity chromatography, was purchased from Carna Biosciences (product no 02-145) and used as enzyme. As substrate for the kinase reaction the biotinylated peptide biotin-Ahx-[…] (C-terminus in amide form) was used, which can be purchased e.g. from the company Biosyntan (Berlin-Buch, Germany). […]
The resulting mixture was incubated for 1 h at 22° C. to allow the formation of complex between the phosphorylated biotinylated peptide and the detection reagents. Subsequently the amount of phosphorylated substrate was evaluated by measurement of the resonance energy transfer from the Eu-chelate to the streptavidine-XL. Therefore, the fluorescence emissions at 620 nm and 665 nm after excitation at 350 nm were measured in a TR-FRET reader, e.g. a Rubystar (BMG Labtechnologies, Offenburg, Germany) or a Viewlux (Perkin-Elmer). […]

## c1cc(-c2cnc3ccc(NC4CCCCC4)nn23)ccn1 [Example R3, N-Cyclohexyl-3-(pyridin-4-yl)-imidazo-[1,2-b]-pyridazin-6-amine, reference compound]
Human full-lengt MKNK1
  IC50: 118 nM
Human full-length MKNK1
  IC50: 230 nM
